Test results published in patent US9216999B2, “Substituted pyrrolo[2,3-h][1,6]naphthyridines and compositions thereof as JAK inhibitors” (priority 2011, dated 2015).

Protein sequences, listed by entry. Tags and fused reporters are not part of them. Lines headed by an entry give the natural chain unless they say otherwise; changes in a name come on top.
UniProt P29597: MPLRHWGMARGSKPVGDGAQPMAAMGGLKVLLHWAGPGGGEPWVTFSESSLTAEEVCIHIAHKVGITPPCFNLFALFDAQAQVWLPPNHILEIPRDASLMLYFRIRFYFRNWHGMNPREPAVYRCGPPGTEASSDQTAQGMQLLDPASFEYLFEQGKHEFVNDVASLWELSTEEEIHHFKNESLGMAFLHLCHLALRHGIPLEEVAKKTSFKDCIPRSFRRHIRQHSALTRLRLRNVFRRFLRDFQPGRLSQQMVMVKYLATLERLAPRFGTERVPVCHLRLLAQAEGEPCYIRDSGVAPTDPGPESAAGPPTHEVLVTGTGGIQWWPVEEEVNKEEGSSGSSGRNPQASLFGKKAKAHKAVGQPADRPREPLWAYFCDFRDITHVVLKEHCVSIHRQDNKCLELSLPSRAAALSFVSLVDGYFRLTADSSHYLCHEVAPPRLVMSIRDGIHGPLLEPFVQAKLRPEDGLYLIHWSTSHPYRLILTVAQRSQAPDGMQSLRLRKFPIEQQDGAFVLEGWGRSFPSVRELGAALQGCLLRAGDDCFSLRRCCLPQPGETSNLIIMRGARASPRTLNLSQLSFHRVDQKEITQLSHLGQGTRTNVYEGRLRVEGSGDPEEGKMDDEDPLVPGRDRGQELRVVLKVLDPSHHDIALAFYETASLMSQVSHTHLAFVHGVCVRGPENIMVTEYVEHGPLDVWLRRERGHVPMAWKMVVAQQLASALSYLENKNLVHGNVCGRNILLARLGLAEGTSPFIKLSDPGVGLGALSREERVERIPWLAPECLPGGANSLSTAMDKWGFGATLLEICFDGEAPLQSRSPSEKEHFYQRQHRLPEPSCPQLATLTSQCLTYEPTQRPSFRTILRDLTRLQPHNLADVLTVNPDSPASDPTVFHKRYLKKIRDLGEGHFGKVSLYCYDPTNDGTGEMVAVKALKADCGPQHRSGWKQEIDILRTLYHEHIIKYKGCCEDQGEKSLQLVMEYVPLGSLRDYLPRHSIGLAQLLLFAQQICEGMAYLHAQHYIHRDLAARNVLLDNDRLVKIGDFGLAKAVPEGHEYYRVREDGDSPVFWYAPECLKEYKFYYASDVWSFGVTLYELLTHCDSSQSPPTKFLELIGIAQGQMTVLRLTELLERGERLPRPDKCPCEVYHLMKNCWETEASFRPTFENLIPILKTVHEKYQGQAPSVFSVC
UniProt P52333: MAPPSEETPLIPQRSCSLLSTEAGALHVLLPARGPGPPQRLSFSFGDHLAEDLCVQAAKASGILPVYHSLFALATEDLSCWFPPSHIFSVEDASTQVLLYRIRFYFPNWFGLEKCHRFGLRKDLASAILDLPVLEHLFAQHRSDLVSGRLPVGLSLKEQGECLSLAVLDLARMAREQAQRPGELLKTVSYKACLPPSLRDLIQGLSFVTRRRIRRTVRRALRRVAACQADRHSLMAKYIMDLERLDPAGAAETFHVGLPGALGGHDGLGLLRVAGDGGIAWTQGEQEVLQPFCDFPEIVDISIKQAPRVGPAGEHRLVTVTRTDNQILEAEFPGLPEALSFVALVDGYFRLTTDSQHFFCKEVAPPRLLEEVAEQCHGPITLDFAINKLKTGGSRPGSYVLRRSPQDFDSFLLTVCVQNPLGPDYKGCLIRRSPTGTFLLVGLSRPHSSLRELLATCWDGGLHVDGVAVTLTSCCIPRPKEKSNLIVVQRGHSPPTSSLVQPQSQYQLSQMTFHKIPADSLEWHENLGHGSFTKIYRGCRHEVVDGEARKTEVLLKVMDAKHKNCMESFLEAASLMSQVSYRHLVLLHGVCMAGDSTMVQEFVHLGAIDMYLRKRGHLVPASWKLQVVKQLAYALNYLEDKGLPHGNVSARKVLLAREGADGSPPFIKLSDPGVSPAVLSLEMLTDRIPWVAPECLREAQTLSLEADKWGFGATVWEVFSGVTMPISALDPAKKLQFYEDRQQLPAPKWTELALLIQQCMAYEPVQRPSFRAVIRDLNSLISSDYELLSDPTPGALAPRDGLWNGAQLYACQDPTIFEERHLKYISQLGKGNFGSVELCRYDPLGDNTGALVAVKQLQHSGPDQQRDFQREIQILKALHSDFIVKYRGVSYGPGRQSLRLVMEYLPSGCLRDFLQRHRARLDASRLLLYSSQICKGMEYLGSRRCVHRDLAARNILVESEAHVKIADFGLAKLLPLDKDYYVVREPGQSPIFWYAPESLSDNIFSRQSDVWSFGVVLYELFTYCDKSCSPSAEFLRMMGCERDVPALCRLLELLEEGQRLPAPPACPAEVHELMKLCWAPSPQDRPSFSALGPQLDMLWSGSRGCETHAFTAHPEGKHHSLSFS

How the values were obtained:
[1] = target: JAK2 (Homo sapiens (Human), UniProt O60674); experiment: JAK2 enzyme assay (Assay Example^b 1)
[2] = target: T1, Tyk2 (Homo sapiens (Human), UniProt P29597); experiment: Tyk2 enzyme assay (Assay Example^b 1)
[3] = target: JAK1 (Homo sapiens (Human), UniProt P23458); experiment: JAK1 enzyme assay (Assay Example^b 1)
[4] = target: JAK3 (Homo sapiens (Human), UniProt P52333); experiment: JAK3 enzyme assay (Assay Example^b 1)
[5] = target: T1, Tyk2; experiment: Enzyme assay (Assay Example^a 1), Tyk2; format: biochemical; settings: ATP 100 μM; Table^a 154; read-out: IC50 (μM) TYK2
[6] = IC50 (μM) JAK3, Table^b 80, ATP 100 μM
[7] = IC50 (μM) JAK1, Table^b 80, ATP 100 μM
[8] = IC50 (μM) JAK2, Table^b 80, ATP 100 μM
[9] = IC50 (μM) TYK2, Table^b 80, ATP 100 μM
[10] = IC50 (μM) JAK3, Table^b 78, ATP 100 μM

SMILES	IC50 [4, 6] [µM]	IC50 ([4]; IC50 (μM) JAK3, ATP 100 μM) [µM]	further results
O=c1[nH]c(=O)n([C@H]2CC[C@H](CNCC3(O)CCCCC3)CC2)c2c1cnc1[nH]ccc12 [compound 126]	–	–	IC50 ([1]; IC50 (μM) JAK2, ATP 100 μM): 0.36 µM; IC50 ([2]; IC50 (μM) TYK2, ATP 100 μM): > 1 µM
C[C@@H]1CCN(S(=O)(=O)c2cccc(C(F)(F)F)c2)C[C@@H]1n1ccc(=O)c2cnc3[nH]ccc3c21 (racemic) [compound 33]	0.096	–	IC50 ([3]; IC50 (μM) JAK1): 0.0098 µM; IC50 ([2]; IC50 (μM) TYK2): 0.4 µM
COCCNC[C@H]1CC[C@H](n2c(=O)[nH]c(=O)c3cnc4[nH]ccc4c32)CC1 [compound 131]	–	> 1	–
C[C@@H]1CCN(C(=O)Cc2ccc(F)cc2)C[C@@H]1n1ccc(=O)c2cnc3[nH]ccc3c21 (racemic) [compound 32]	0.55	–	IC50 [3, 7]: 0.081 µM; IC50 [1, 8]: 0.77 µM
O=c1[nH]c(=O)n([C@H]2CC[C@H](CNCCN3CCOCC3)CC2)c2c1cnc1[nH]ccc12 [compound 123]	–	> 1	IC50 ([1]; IC50 (μM) JAK2, ATP 100 μM): > 1 µM; IC50 ([2]; IC50 (μM) TYK2, ATP 100 μM): > 1 µM
O=c1ccn(C2CCN(Cc3ccc([N+](=O)[O-])o3)CC2)c2c1cnc1[nH]ccc12 [compound 72]	–	–	IC50 [3, 7]: 0.0098 µM; IC50 [1, 8]: 0.33 µM; IC50 [2, 9]: 0.88 µM
COCn1c(=O)c2cnc3[nH]ccc3c2n(C2CCCCC2)c1=O [compound 143]	–	> 1	–
N#CCN1CCC(n2c(=O)[nH]c(=O)c3cnc4[nH]ccc4c32)CC1 [compound 94]	–	> 1	–
O=c1ccn(C2CCN(Cc3cc(Br)cs3)CC2)c2c1cnc1[nH]ccc12 [compound 82]	–	–	IC50 ([3]; IC50 (μM) JAK1): 0.0021 µM
C[C@@H]1CCN(CCc2ccc(F)cc2)C[C@@H]1n1ccc(=O)c2cnc3[nH]ccc3c21 (racemic) [compound 46]	0.046	–	–
C[C@@H]1CCN(Cc2cccc(C(F)(F)F)c2)C[C@@H]1n1ccc(=O)c2cnc3[nH]ccc3c21 (racemic) [compound 39]	–	–	IC50 [3, 7]: 0.048 µM; IC50 [1, 8]: 0.15 µM; IC50 [2, 9]: > 1 µM
c1cc2c(ncn3nnc(C4CCN(Cc5csnn5)CC4)c23)[nH]1 [compound 152]	–	–	IC50 [5]: 0.11 µM
CC(CO)(CO)Cn1c(=O)c2cnc3[nH]ccc3c2n(C2CCCCC2)c1=O [compound 151]	–	–	IC50 ([2]; IC50 (μM) TYK2, ATP 100 μM): > 1 µM
O=C1NCc2cnc3[nH]ccc3c2N1C1CCN(Cc2cncs2)CC1 [compound 66]	> 1	–	–
O=c1[nH]c(=O)n([C@H]2CC[C@H](CNCC(F)(F)F)CC2)c2c1cnc1[nH]ccc12 [compound 102]	–	0.32	–
O=c1ccn(C2CCN(Cc3csc([N+](=O)[O-])c3)CC2)c2c1cnc1[nH]ccc12 [compound 79]	0.094	–	–
O=c1c2cnc3[nH]ccc3c2n(C2CCCCC2)c(=O)n1CCN1CCOCC1 [compound 142]	–	–	IC50 ([1]; IC50 (μM) JAK2, ATP 100 μM): > 1 µM
CSCn1c(=O)c2cnc3[nH]ccc3c2n(C2CCCCC2)c1=O [compound 147]	–	> 1	–
ClC[C@H]1CC[C@H](c2nnn3cnc4[nH]ccc4c23)CC1 [compound 75]	–	–	IC50 [5]: 0.0012 µM
C[C@@H]1CCN(C2CCCC2)C[C@@H]1n1ccc(=O)c2cnc3[nH]ccc3c21 (racemic) [compound 47]	0.11	–	IC50 [3, 7]: 0.11 µM
O=c1ccn(C2CCN(Cc3ccc(F)c(C(F)(F)F)c3)CC2)c2c1cnc1[nH]ccc12 [compound 78]	> 1	–	–
O=c1[nH]c(=O)n(C2CCN(CCC3CCSCC3)CC2)c2c1cnc1[nH]ccc12 [compound 90]	–	> 1	–

SMILES	IC50 [4, 6] [µM]	IC50 ([4]; IC50 (μM) JAK3, ATP 100 μM) [µM]	further results
Cc1cn([C@H]2CN(Cc3ccccc3)CC[C@H]2C)c2c(cnc3[nH]ccc32)c1=O (racemic) [compound 23]	0.1	–	IC50 [2, 9]: > 1 µM
C[C@@H]1CCN(C(=O)Nc2nncs2)C[C@@H]1n1ccc(=O)c2cnc3[nH]ccc3c21 (racemic) [compound 36]	0.0038	–	–
CCC(C)CN1CCC(n2c(=O)[nH]c(=O)c3cnc4[nH]ccc4c32)CC1 (racemic) [compound 92]	–	–	IC50 ([1]; IC50 (μM) JAK2, ATP 100 μM): > 1 µM; IC50 ([2]; IC50 (μM) TYK2, ATP 100 μM): > 1 µM
C[C@@H]1CCN(C(=O)c2ccccc2C(F)(F)F)C[C@@H]1n1ccc(=O)c2cnc3[nH]ccc3c21 (racemic) [compound 30]	–	–	IC50 [3, 7]: 0.18 µM; IC50 [1, 8]: > 1 µM; IC50 [2, 9]: > 1 µM
N#CCCCN1CCC(n2c(=O)[nH]c(=O)c3cnc4[nH]ccc4c32)CC1 [compound 98]	–	> 1	–
O=S1(=O)C=CN(C2CCCCC2)c2c1cnc1[nH]ccc21 [compound 12]	–	–	IC50 [4, 10]: 1.3 µM
N#CCCN1CCC(n2c(=O)[nH]c(=O)c3cnc4[nH]ccc4c32)CC1 [compound 100]	–	> 1	–
C[C@@H]1CCN(C(=O)OC(C)(C)C)C[C@@H]1n1ccc(=O)c2cnc3[nH]ccc3c21 (racemic) [compound 45]	0.04	–	–
O=c1c2cnc3[nH]ccc3c2n(C2CCCCC2)c(=O)n1CCCO [compound 141]	–	0.8	–
O=c1[nH]c(=O)n(C2CCN(CCNCC3CC3)CC2)c2c1cnc1[nH]ccc12 [compound 110]	–	> 1	IC50 ([2]; IC50 (μM) TYK2, ATP 100 μM): > 1 µM
C[C@@H]1CCN(Cc2ccccc2)C[C@@H]1n1ccc(=O)c2cnc3[nH]cc(Cl)c3c21 (racemic) [compound 22]	0.37	–	–
NCCN1CCC(n2c(=O)[nH]c(=O)c3cnc4[nH]ccc4c32)CC1 [compound 88]	–	> 1	–
O=c1ccn(C2CCN(Cc3cnc(Cl)s3)CC2)c2c1cnc1[nH]ccc12 [compound 77]	1	–	–
O=c1c2cnc3[nH]ccc3c2n(C2CCCCC2)c(=O)n1CC1CCCO1 (racemic) [compound 150]	–	0.64	–
O=c1c2cnc3[nH]ccc3c2n(C2CCCCC2)c(=O)n1CCO [compound 140]	–	0.78	–
O=c1[nH]c(=O)n([C@H]2CC[C@H](CN3CC(O)(C(F)(F)F)C3)CC2)c2c1cnc1[nH]ccc12 [compound 129]	–	0.81	IC50 ([3]; IC50 (μM) JAK1): 0.0079 µM; IC50 ([2]; IC50 (μM) TYK2): 0.36 µM
O=c1[nH]c(=O)n([C@H]2CC[C@H](CN3CCS(=O)(=O)CC3)CC2)c2c1cnc1[nH]ccc12 [compound 114]	–	0.52	–
c1cc2c(ncn3nnc(C4CCC(N5CCOCC5)CC4)c23)[nH]1 (stereo not shown) [compound 124]	–	–	IC50 [5]: 0.55 µM
N#CCCN(CCC#N)CC1CCC(n2c(=O)[nH]c(=O)c3cnc4[nH]ccc4c32)CC1 (stereo not shown) [compound 116]	–	0.036	–
O=c1[nH]c(=O)n(C2CCN(Cc3ccccc3)CC2)c2c1cnc1[nH]ccc12 [compound 49]	> 1	–	–
C[C@@H]1CCN(Cc2ccccc2C#N)C[C@@H]1n1ccc(=O)c2cnc3[nH]ccc3c21 (racemic) [compound 43]	0.15	–	–
C[C@@H]1CCN(Cc2ccccc2)C[C@@H]1n1cc(Br)c(=O)c2cnc3[nH]ccc3c21 (racemic) [compound 24]	0.56	–	IC50 ([3]; IC50 (μM) JAK1): 0.025 µM

SMILES	IC50 [4, 6] [µM]	IC50 ([4]; IC50 (μM) JAK3, ATP 100 μM) [µM]	further results
CO[C@H]1CC[C@H](n2ccc(=O)c3cnc4[nH]ccc4c32)CC1 [compound 70]	–	–	IC50 [1, 8]: > 1 µM
Cc1cc(NC(=O)N2CC[C@@H](C)[C@@H](n3ccc(=O)c4cnc5[nH]ccc5c43)C2)sn1 (racemic) [compound 37]	0.0028	–	–
CC(C)CS(=O)(=O)N1CC[C@@H](C)[C@@H](n2ccc(=O)c3cnc4[nH]ccc4c32)C1 (racemic) [compound 10]	–	–	IC50 [4, 10]: 0.034 µM
FC(F)(F)c1cccc(CN2CCC(c3nnn4cnc5[nH]ccc5c34)CC2)c1 [compound 39]	–	–	IC50 [5]: > 1 µM
C[C@@H]1CCN(S(=O)(=O)CC(F)(F)F)C[C@@H]1n1ccc(=O)c2cnc3[nH]ccc3c21 (racemic) [compound 11]	–	–	IC50 ([3]; IC50 (μM) JAK1, Table^b 78, ATP 100 μM): 0.012 µM; IC50 [4, 10]: 0.034 µM
O=c1ccn(C2CCN(Cc3ccc(C(F)(F)F)nc3)CC2)c2c1cnc1[nH]ccc12 [compound 76]	> 1	–	–
CCOC(=O)c1ccc(CN2CCC(n3ccc(=O)c4cnc5[nH]ccc5c43)CC2)o1 [compound 73]	> 1	–	–
C[C@@H]1CCN(S(=O)(=O)c2cccc(C#N)c2)C[C@@H]1n1ccc(=O)c2cnc3[nH]ccc3c21 (racemic) [compound 26]	0.1	–	–
O=c1[nH]c(=O)n([C@H]2CC[C@H](CN3CC(O)C3)CC2)c2c1cnc1[nH]ccc12 [compound 113]	–	> 1	–
O=c1[nH]c(=O)n(C2CCCCC2)c2c1cnc1[nH]ccc12 [compound 53]	–	–	IC50 [3, 7]: 0.0074 µM; IC50 [2, 9]: 0.04 µM
O=C(CC(F)(F)F)N(CC(F)(F)F)C[C@H]1CC[C@H](n2c(=O)[nH]c(=O)c3cnc4[nH]ccc4c32)CC1 [compound 155]	–	0.2	–
c1cc2c3c(cnc2[nH]1)COCN3C1CCCCC1 [compound 2]	–	–	IC50 ([2]; IC50 (μM) TYK2, Table^b 79, ATP 100 μM): 3.1 µM; IC50 [4, 10]: 1.2 µM
O=c1ccn(C2CCN(Cc3ccc4c(c3)OC(F)(F)O4)CC2)c2c1cnc1[nH]ccc12 [compound 84]	0.13	–	IC50 [3, 7]: 0.00075 µM
O=c1[nH]c(=O)n([C@H]2CC[C@H](CN3CCC(C(F)(F)F)CC3)CC2)c2c1cnc1[nH]ccc12 [compound 128]	–	> 1	–
C[C@@H]1CCN(C(=O)Nc2cccc(C(F)(F)F)c2)C[C@@H]1n1ccc(=O)c2cnc3[nH]ccc3c21 (racemic) [compound 29]	0.2	–	–
COCCn1c(=O)c2cnc3[nH]ccc3c2n(C2CCCCC2)c1=O [compound 145]	–	> 1	–
N#CCCCCN1CCC(n2c(=O)[nH]c(=O)c3cnc4[nH]ccc4c32)CC1 [compound 96]	–	> 1	–
O=c1c2cnc3[nH]ccc3c2n(C2CCCCC2)c(=O)n1C1CCCC1 [compound 148]	–	> 1	–
C[C@@H]1CCN(C(=O)c2ccc(C(F)(F)F)cc2)C[C@@H]1n1ccc(=O)c2cnc3[nH]ccc3c21 (racemic) [compound 34]	> 1	–	–
O=C1NCc2cnc3[nH]ccc3c2N1C1CCN(Cc2ccccc2)CC1 [compound 59]	–	–	IC50 [3, 7]: 0.042 µM
